Test results reported in patent publication US20090035322A1 (Regeneron, published 2009).
Where two headings read alike, the source gives them in different places.

Experiments:
[1] = molecular target: T1, mutant human CD20 #5 (P172S) (human, UniProt P11836 1-297); assay: FACS, mutant-hCD20 MG87 cells; 100%=best antibody
T1 construct: Stably expressed on MG87 cells
T1 sequence: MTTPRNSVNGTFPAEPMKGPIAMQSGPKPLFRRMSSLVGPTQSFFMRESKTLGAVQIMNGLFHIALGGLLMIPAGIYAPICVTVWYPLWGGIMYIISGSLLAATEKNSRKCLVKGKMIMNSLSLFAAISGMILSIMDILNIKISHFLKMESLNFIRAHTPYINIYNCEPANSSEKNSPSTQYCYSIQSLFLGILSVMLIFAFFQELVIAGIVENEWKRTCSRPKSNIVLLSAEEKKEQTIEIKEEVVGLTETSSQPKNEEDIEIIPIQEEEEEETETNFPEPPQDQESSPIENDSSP
Method: Briefly, approximately 1×10⁶ cells from each stably transfected cell line expressing a mutant human CD20 were collected and incubated with each anti-human antibody, at 10 μg/ml, on ice for 1 hr, followed by incubation with APC-conjugated goat anti-human IgG (Jackson Immunolabs), at 10 μg/ml, on ice for 45 min. For each antibody, binding to each mutant human CD20 was assessed by flow cytometry.

human CD20 [2] = molecular target: T2, human CD20 (human, UniProt P11836 1-297); assay: flow cytometry, hCD20-transfected MG87 cells
T2 construct: On human CD20-transfected MG87 cells, or endogenous on Daudi, RL and Raji cells; also called hCD20
T2 sequence: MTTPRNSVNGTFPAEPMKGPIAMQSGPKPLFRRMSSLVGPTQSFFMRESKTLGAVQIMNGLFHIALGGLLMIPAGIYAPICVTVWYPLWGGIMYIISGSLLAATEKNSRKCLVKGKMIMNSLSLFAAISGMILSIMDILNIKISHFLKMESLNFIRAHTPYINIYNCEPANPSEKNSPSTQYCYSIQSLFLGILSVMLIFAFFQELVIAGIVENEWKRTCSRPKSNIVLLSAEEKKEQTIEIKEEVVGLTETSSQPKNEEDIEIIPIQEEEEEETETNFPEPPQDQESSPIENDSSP
Method: Briefly, parental MG87 and human CD20-transfected MG87 cells were incubated for 30 min at 4° C. with each of the 15 human antibodies and the two control antibodies, followed by incubation with PE-conjugated anti-human IgG antibody. Binding was assessed by flow cytometry. Fluorescence intensities were compared with binding to the parental cell line and control isotype-matched sample.

human CD20 [3] = molecular target: T2, human CD20; assay: cell-based or functional assay
human CD20 [4] = molecular target: T2, human CD20; assay: cell-based or functional assay; remark: listed apart in the source
human CD20 [5] = molecular target: T2, human CD20; assay: cell-based or functional assay; remark: listed apart in the source
human CD20 [6] = molecular target: T2, human CD20; assay: cell-based or functional assay; remark: listed apart in the source

B1: 2F2 (antibody, V domains shown)
VH: EVQLVESGGGLVQPGRSLRLSCAASGFTFNDYAMHWVRQAPGKGLEWVSTISWNSGSIGYADSVKGRFTISRDNAKKSLYLQMNSLRAEDTALYYCAKDIQYGNYYYGMDVWGQGTTVTVSS
VL: EIVLTQSPATLSLSPGERATLSCRASQSVSSYLAWYQQKPGQAPRLLIYDASNRATGIPARFSGSGSGTDFTLTISSLEPEDFAVYYCQQRSNWPITFGQGTRLEIK
Percent of Binding to Mutant Human CD20 [1]: 84% | Total Mean Fluorescent Intensity (human CD20 [2]): 3320 | % Cytotoxicity (CDC, Daudi), 0 hour (human CD20 [3]): 99.1% | % Cytotoxicity (CDC, Daudi), 1 hour (human CD20 [3]): 99.2% | % Cytotoxicity (CDC, Daudi), 6 hour (human CD20 [3]): 98.7% | CDC, Daudi EC50 (human CD20 [4]): 0.28 nM | CDC, RL EC50 (human CD20 [4]): 0.77 nM | % Cytotoxicity (CDC, Daudi), 0 hour (human CD20 [5]): 99.6% | % Cytotoxicity (CDC, Daudi), 1 hour (human CD20 [5]): 99.1% | % Cytotoxicity (CDC, Daudi), 6 hour (human CD20 [5]): 98.5% | % Cytotoxicity (CDC, Daudi), 0 hour (human CD20 [6]): 98.3% | % Cytotoxicity (CDC, Daudi), 1 hour (human CD20 [6]): 98.6% | % Cytotoxicity (CDC, Daudi), 6 hour (human CD20 [6]): 97.7%
